Source: patent US9890152B2 (Genentech, Inc., priority 2012, dated 2018)
Where a name gives a salt, the structure may show the parent alone.

Protein sequences, listed by entry. Tags and fused reporters are not part of them. Residues count along the entry.
UniProt P00533, 25-1210 T790M/L858R limits assumed: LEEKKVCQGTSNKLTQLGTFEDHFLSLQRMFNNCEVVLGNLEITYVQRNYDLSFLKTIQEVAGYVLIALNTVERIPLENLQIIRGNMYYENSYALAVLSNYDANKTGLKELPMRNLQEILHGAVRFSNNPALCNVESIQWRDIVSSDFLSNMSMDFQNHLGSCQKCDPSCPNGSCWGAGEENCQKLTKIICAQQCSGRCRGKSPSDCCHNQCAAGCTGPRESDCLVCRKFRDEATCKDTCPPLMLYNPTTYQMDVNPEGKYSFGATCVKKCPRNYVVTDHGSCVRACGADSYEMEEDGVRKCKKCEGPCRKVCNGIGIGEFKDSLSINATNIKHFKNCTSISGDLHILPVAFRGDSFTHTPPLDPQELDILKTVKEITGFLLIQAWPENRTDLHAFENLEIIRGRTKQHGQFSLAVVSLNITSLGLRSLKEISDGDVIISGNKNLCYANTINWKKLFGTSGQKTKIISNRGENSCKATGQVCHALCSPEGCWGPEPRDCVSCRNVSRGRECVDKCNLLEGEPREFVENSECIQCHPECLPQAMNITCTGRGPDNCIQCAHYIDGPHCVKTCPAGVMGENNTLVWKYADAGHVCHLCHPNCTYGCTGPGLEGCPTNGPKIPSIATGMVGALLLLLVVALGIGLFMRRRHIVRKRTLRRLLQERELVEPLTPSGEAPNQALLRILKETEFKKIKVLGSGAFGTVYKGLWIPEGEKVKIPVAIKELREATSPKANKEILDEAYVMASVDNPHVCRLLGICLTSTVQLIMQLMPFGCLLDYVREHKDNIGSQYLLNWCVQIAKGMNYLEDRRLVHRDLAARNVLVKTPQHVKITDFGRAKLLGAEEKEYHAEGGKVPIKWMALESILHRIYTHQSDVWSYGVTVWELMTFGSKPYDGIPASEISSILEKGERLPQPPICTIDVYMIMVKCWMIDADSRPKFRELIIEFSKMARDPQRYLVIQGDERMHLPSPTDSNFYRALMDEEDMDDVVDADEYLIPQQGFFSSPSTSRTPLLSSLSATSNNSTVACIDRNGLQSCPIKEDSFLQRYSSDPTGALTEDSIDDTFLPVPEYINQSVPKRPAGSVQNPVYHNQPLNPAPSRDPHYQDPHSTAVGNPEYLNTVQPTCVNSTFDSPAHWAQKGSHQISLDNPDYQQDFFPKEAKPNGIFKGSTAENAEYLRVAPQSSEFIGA

The molecules below were run against EGFR T790M L858R (Homo sapiens, UniProt P00533, L858R/T790M) (assay: biochemical). Conditions: EGFR(T790M/L858R) Ki (μM), 5 μM ATP, 30 min, room temperature; apparent Ki (Morrison) converted by Cheng-Prusoff, Km of ATP 1.3 μM.

| SMILES | Ki [µM] |
| --- | --- |
| CC(C)n1cnc2cnc(Nc3ccnc(N4CCC5CC54)n3)cc21 (centres unmarked) [Example 217] | 0.758 |
| CC(C)n1c(CO)nc2cnc(Nc3ccnc(C4=CCC(O)CC4)n3)cc21 (centres unmarked) [Example 624, 4-(4-((2-(hydroxymethyl)-1-isopropyl-1H-imidazo[4,5-c]pyridin-6-yl)amino)pyrimidin-2-yl)cyclohex-3-enol] | 0.111 |
| CC(C)n1cnc2cnc(Nc3ccnc(NC4CCCC(O)C4)n3)cc21 (centres unmarked) [Example 175] | 0.508 |
| CCC1CCN(c2nccc(Nc3cc4c(cn3)nc(CO)n4C(C)C)n2)CC1 [Example 513, (6-((2-(4-Ethylpiperidin-1-yl)pyrimidin-4-yl)amino)-1-isopropyl-1H-imidazo[4,5-c]pyridin-2-yl)methanol] | 0.149 |
| CC(C)n1cnc2cnc(Nc3ccnc(C4CCCCC4)n3)cc21 [Example 269, (2-Cyclohexylpyrimidin-4-yl)-(1-isopropyl-1H-imidazo[4,5-c]pyridin-6-yl)amine] | 0.514 |
| Cc1nc2cnc(Nc3ccnc(-c4ccc(C(=O)N(C)C)nc4)n3)cc2n1C(C)C [Example 578, 5-[4-(1-Isopropyl-2-methyl-1H-imidazo[4,5-c]pyridin-6-ylamino)pyrimidin-2-yl]pyridine-2-carboxylic acid dimethylamide] | 0.697 |
| CC(C)n1cnc2cnc(Nc3ccnc(N4CCc5ncn(C)c5C4)n3)cc21 [Example 159, (1-Isopropyl-1H-imidazo[4,5-c]pyridin-6-yl)-[2-(3-methyl-3,4,6,7-tetrahydroimidazo[4,5-c]pyridin-5-yl)pyrimidin-4-yl]amine] | 0.354 |
| CC(C)n1cnc2cnc(Nc3ccnc(N4CCCC(C(N)=O)C4)n3)cc21 (centres unmarked) [Example 66, 1-(4-(1-isopropyl-1H-imidazo[4,5-c]pyridin-6-ylamino)pyrimidin-2-yl)piperidine-3-carboxamide] | 0.593 |
| CC(C)n1cnc2cnc(Nc3ccnc(NCCS(C)(=O)=O)n3)cc21 [Example 39, N^4-(1-isopropyl-1H-imidazo[4,5-c]pyridin-6-yl)-N2-(2-(methylsulfonyl)ethyl)pyrimidine-2,4-diamine] | 1.08 |
| CC(C)n1cnc2cnc(Nc3ccnc(N4CC(C#N)C4)n3)cc21 [Example 145, 1-[4-(1-Isopropyl-1H-imidazo[4,5-c]pyridin-6-ylamino)pyrimidin-2-yl]azetidine-3-carbonitrile] | 1.07 |
| Cc1nc2cnc(Nc3ccnc(NCC(C)(C)c4nnc[nH]4)n3)cc2n1C(C)C [Example 329, N^4-(1-Isopropyl-2-methyl-1H-imidazo[4,5-c]pyridin-6-yl)-N^2-(2-methyl-2-(4H-1,2,4-triazol-3-yl)propyl)pyrimidine-2,4-diamine] | 0.174 |
| Cc1cn(-c2nccc(Nc3cc4c(cn3)nc(C)n4C(C)C)n2)c(C)n1 [Example 606] | 0.235 |
| CNC(=O)C1CN(c2nccc(Nc3cc4c(cn3)ncn4C(C)C)n2)C1 [Example 197] | 1.8 |
| CC(C)n1cnc2cnc(Nc3ccnc(N4CCC(n5cccn5)CC4)n3)cc21 [Example 133, (1-Isopropyl-1H-imidazo[4,5-c]pyridin-6-yl)-[2-(4-pyrazol-1-ylpiperidin-1-yl)pyrimidin-4-yl]amine] | 0.551 |
| CC(C)n1cnc2cnc(Nc3ccnc(N4CCC5(CCNCC5)CC4)n3)cc21 [Example 227] | 1.58 |

Now those with a lower Ki, led by results:

| Ki [µM] | SMILES |
| --- | --- |
| 0.098 | Cc1nc2cnc(Nc3ccnc(-n4cnc(C(C)O)c4)n3)cc2n1C(C)C (single isomer, unassigned) [Example 643, 1-(1-(4-((1-isopropyl-2-methyl-1H-imidazo[4,5-c]pyridin-6-yl)amino)pyrimidin-2-yl)-1H-imidazol-4-yl)ethanol] |
| 0.0977 | COC1CCN(c2nccc(Nc3cc4c(cn3)ncn4C3CC3)n2)CC1 [Example 150, (1-Cyclopropyl-1H-imidazo[4,5-c]pyridin-6-yl)-[2-(4-methoxypiperidin-1-yl)pyrimidin-4-yl]amine formate salt] |
| 0.0912 | CC(C)n1c(CO)nc2cnc(Nc3ccnc(N4CC[C@H](O)[C@@](C)(F)C4)n3)cc21 [Example 702] |
| 0.0803 | CC(C)n1c(CO)nc2cnc(Nc3ccnc(N4CCC(C(F)(F)F)CC4)n3)cc21 [Example 512, (1-Isopropyl-6-((2-(4-(trifluoromethyl)piperidin-1-yl)pyrimidin-4-yl)amino)-imidazo[4,5-c]pyridin-2-yl)methanol] |
| 0.0601 | Cc1nc2cnc(Nc3ccnc(N4CC[C@@H](S(C)(=O)=O)[C@H](F)C4)n3)cc2n1C(C)C (racemic) [Example 616, [2-(±)-(trans-3-Fluoro-4-methanesulfonylpiperidin-1-yl)pyrimidin-4-yl]-(1-isopropyl-2-methyl-1H-imidazo[4,5-c]pyridin-6-yl)amine] |
| 0.0515 | COC1CCN(c2nccc(Nc3cc4c(cn3)nc3n4C(C)(C)CO3)n2)CC1 [Example 532, N-(2-(4-methoxypiperidin-1-yl)pyrimidin-4-yl)-3,3-dimethyl-2,3-dihydrooxazolo[3′,2′:1,2]imidazo [4,5-c]pyridin-6-amine] |
| 0.0378 | Cc1nc2cnc(Nc3ccnc(-c4cnn(CC5CC5)c4Cl)n3)cc2n1C(C)C [Example 336, N-(2-(5-Chloro-1-(cyclopropylmethyl)-1H-pyrazol-4-yl)pyrimidin-4-yl)-1-isopropyl-2-methyl-1H-imidazo[4,5-c]pyridin-6-amine] |
| 0.0255 | CC(C)OC1CCN(c2nccc(Nc3cc4c(cn3)c(C(N)=O)cn4C(C)C)n2)CC1 [Example 124, 6-((2-(4-isopropoxypiperidin-1-yl)pyrimidin-4-yl)amino)-1-isopropyl-1H-pyrrolo[3,2-c]pyridine-3-carboxamide] |
| 0.0143 | CS[C@H]1CCN(c2nccc(Nc3cc4c(cn3)nc(C)n4C(C)C)n2)C[C@H]1F (racemic) [Example 617, [2-(±)-(cis-3-Fluoro-4-methylsulfanylpiperidin-1-yl)pyrimidin-4-yl]-(1-isopropyl-2-methyl-1H-imidazo[4,5-c]pyridin-6-yl)amine] |
| 0.0139 | Cc1nc2cnc(Nc3ccnc(N4CCC5(CCO5)CC4)n3)cc2n1C(C)C [Example 495, N-(2-(1-Oxa-7-azaspiro[3.5]nonan-7-yl)pyrimidin-4-yl)-1-isopropyl-2-methyl-1H-imidazo[4,5-c]pyridin-6-amine] |
| 0.0088 | COC1CCN(c2nccc(Nc3cc4c(cn3)c(C(=O)NCCn3ccnc3)cn4C(C)C)n2)CC1 [Example 63, N-(2-(1H-Imidazol-1-yl)ethyl)-1-isopropyl-6-(2-(4-methoxypiperidin-1-yl)pyrimidin-4-ylamino)-1H-pyrrolo[3,2-c]pyridine-3-carboxamide] |
| 0.00247 | CC[C@H](C)n1c([C@@H](C)O)nc2cnc(Nc3ccnc(-c4cnn(S(=O)(=O)CC)c4)n3)cc21 [Example 535, (R)-1-{(S)-1-sec-Butyl-6-[2-(1-ethanesulfonyl-1H-pyrazol-4-yl)-pyrimidin-4-ylamino]-1H-imidazo[4,5-c]pyridin-2-yl}-ethanol] |
| 0.00232 | CCC(C)n1cc(C(=O)NC2CCOCC2)c2cnc(Nc3ccnc(N4C[C@@H](F)[C@@H](O)C(C)(C)C4)n3)cc21 (mixture of isomers) [Example 646, 1-sec-Butyl-6-(2-((±)-cis-5-fluoro-4-hydroxy-3,3-dimethylpiperidin-1-yl)pyrimidin-4-ylamino)-N-(tetrahydro-2H-pyran-4-yl)-1H-pyrrolo[3,2-c]pyridine-3-carboxamide] |
| 0.00217 | CC[C@@H](C)n1c([C@@H](C)O)nc2cnc(Nc3ccnc(-c4cnn(S(=O)(=O)C5CC5)c4)n3)cc21 [Example 541, (R)-1-{1-((R)-sec-Butyl)-6-[2-(1-cyclopropanesulfonyl-1H-pyrazol-4-yl)pyrimidin-4-ylamino]-1H-imidazo[4,5-c]pyridin-2-yl}ethanol] |
| 0.00166 | CCS(=O)(=O)n1cc(-c2nccc(Nc3cc4c(cn3)c(-c3cnn(CCS(C)(=O)=O)c3)cn4C(C)C)n2)cn1 [Example 392, N-(2-(1-(ethylsulfonyl)-1H-pyrazol-4-yl)pyrimidin-4-yl)-1-isopropyl-3-(1-(2-(methylsulfonyl)ethyl)-1H-pyrazol-4-yl)-1H-pyrrolo[3,2-c]pyridin-6-amine] |
| 0.00165 | C[C@H](n1c(CO)nc2cnc(Nc3ccnc(N4CC[C@H](O)[C@H](F)C4)n3)cc21)C(C)(F)F (racemic) [Example 644, (±)-(cis)-1-(4-(1-((S)-3,3-Difluorobutan-2-yl)-2-(hydroxymethyl)-1H-imidazo[4,5-c]pyridin-6-ylamino)pyrimidin-2-yl)-3-fluoropiperidin-4-ol] |
| 0.0015 | CC(C)n1cc(NC(=O)C(C)(C)O)c2cnc(Nc3ccnc(-c4cnn(S(=O)(=O)C5CC5)c4)n3)cc21 [Example 391, N-(6-((2-(1-(cyclopropylsulfonyl)-1H-pyrazol-4-yl)pyrimidin-4-yl)amino)-1-isopropyl-1H-pyrrolo[3,2-c]pyridin-3-yl)-2-hydroxy-2-methylpropanamide] |
| 0.00143 | CO[C@@H]1CCN(c2nccc(Nc3cc4c(cn3)c(C(=O)NC3CCOCC3)cn4C(C)C)n2)C[C@@H]1F [Example 380, 6-((2-((3S,4R)-3-fluoro-4-methoxypiperidin-1-yl)pyrimidin-4-yl)amino)-1-isopropyl-N-(tetrahydro-2H-pyran-4-yl)-1H-pyrrolo [3,2-c]pyridine-3-carboxamide] |
| 0.00124 | C[C@H](n1c([C@@H](C)O)nc2cnc(Nc3ccnc(N4CC[C@@H](O)[C@@H](F)C4)n3)cc21)C(F)(F)F [Example 291, (3S,4R)-3-Fluoro-1-{4-[2-((R)-1-hydroxyethyl)-1-((S)-2,2,2-trifluoro-1-methylethyl)-1H-imidazo[4,5-c]pyridin-6-ylamino]pyrimidin-2-yl}-piperidin-4-ol] |
| 0.000928 | CC(C)n1cc(NC(=O)CO)c2cnc(Nc3ccnc(-c4cnn(S(=O)(=O)C5CC5)c4)n3)cc21 [Example 328, N-(6-((2-(1-(Cyclopropylsulfonyl)-1H-pyrazol-4-yl)pyrimidin-4-yl)amino)-1-isopropyl-1H-pyrrolo[3,2-c]pyridin-3-yl)-2-hydroxyacetamide] |
